Experimental data reported in ChEMBL document CHEMBL5321201, “Investigation of morpholine isosters for the development of a potent, selective and metabolically stable mTOR kinase inhibitor” (Eur J Med Chem, 2023).

Assay: Selectivity index, ratio of Kd for DNA-tagged PI3Kalpha (unknown origin) to Kd for mTOR (unknown origin)

Selectivity Index: > 80
SMILES: Nc1cc(C(F)F)c(-c2nc(C3CCOCC3)nc(N3C4CCC3COC4)n2)cn1
